Assay results taken from article PMC8278646 (Microbial Cell Factories, 2021).

Sequences of proteins named here, by UniProt entry; tags and fusion partners are left off.
UniProt P01031, whole entry, looked up: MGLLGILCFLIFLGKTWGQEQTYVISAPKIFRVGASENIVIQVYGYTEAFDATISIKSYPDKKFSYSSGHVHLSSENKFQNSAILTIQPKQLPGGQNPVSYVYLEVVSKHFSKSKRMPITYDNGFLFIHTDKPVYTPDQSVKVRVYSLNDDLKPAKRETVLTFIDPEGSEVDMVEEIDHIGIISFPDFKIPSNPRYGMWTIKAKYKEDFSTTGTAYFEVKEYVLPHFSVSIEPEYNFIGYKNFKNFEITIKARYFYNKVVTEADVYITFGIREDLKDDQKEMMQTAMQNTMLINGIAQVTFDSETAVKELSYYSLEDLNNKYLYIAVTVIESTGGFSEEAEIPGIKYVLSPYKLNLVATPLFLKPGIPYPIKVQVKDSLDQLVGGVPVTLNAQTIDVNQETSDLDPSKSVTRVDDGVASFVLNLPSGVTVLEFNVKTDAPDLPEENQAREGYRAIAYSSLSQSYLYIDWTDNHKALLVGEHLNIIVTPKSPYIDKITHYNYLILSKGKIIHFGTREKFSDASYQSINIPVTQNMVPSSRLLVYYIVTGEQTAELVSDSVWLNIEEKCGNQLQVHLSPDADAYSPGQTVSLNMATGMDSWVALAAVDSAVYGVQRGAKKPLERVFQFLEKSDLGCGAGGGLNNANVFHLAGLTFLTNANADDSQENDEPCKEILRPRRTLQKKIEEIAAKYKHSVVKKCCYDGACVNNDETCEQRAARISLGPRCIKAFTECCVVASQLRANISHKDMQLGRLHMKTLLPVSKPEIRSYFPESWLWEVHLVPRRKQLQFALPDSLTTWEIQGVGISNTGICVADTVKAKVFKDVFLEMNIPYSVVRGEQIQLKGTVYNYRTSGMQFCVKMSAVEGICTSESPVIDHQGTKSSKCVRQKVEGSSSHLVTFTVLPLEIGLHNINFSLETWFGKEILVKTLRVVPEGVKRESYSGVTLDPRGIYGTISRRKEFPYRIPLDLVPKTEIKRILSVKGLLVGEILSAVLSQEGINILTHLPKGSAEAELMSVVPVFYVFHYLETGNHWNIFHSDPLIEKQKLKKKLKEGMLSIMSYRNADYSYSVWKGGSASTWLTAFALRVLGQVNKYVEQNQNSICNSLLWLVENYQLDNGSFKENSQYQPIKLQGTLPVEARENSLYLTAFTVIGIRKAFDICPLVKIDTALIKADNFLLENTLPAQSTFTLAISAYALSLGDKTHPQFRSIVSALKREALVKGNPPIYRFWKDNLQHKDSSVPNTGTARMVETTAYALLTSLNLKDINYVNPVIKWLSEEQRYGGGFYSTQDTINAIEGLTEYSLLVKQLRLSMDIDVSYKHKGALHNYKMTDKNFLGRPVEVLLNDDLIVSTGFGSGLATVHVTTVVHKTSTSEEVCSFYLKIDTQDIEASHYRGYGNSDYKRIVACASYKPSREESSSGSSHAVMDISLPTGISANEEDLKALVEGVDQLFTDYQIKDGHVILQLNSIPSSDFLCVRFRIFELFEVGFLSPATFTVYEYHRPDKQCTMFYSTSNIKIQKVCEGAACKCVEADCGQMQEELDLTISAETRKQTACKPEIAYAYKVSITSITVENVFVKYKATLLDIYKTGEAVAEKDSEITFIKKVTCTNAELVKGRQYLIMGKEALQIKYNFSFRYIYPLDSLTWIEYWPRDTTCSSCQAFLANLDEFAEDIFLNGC

Target: T1, Complement C5 from human serum (Homo sapiens, UniProt P01031)
T1 construct: complement C5 beta chain, human, from serum; complement C5 alpha chain, human, from serum; source: bought: Sigma-Aldrich (from human serum)
Experiment: ELISA; antigen coated on MaxiSorp plates (5 ug/mL, carbonate buffer pH 9.6); antibody fragments purified from culture supernatant by cobalt-based immunoprecipitation, serially diluted; detection by anti-6x-His-tag antibody, OD450; room temperature
Conditions: both partners purified

B1: Pexelizumab (Pex, Humanized), scFv (scFv, V domains shown)
VH: QVQLVQSGAEVKKPGASVKVSCKASGYIFSNYWIQWVRQAPGQGLEWMGEILPGSGSTEYTENFKDRVTMTRDTSTSTVYMELSSLRSEDTAVYYCARYFFGSSPNWYFDVWGQGTLVTVSS
VL: DIQMTQSPSSLSASVGDRVTITCGASENIYGALNWYQRKPGKAPKLLIYGATNLADGVPSRFSGSGSGTDFTLTISSLQPEDFATYYCQNVLNTPLTFGQGTKVEIK
notes: VH of Pexelizumab; polypeptide linker between VH and VL; VL of Pexelizumab; A spacer EEGEPK stood at the C-terminus of the leader; A further band of ca. 14 kDa (partial degradation) was in the supernatant; source: S. cerevisiae HA (also LA, MA), secreted with alpha-factor leader; used as concentrated culture supernatant and purified from it by cobalt-based immunoprecipitation; not shown: His6, …
- binding result: binds
